Columns and labels:
[1] = target: NOP receptor (NOP-RLuc/Gβ1-RGFP) (Homo sapiens, UniProt P41146); experiment: NOP/G protein interaction, BRET assay in membranes; assay type: biochemical; conditions: Emax of ligand / Emax of N/OFQ(1–13)-NH2; mean ± sem of five experiments in duplicate
[2] = system: NOP receptor; experiment: NOP bias factor, G protein vs β-arrestin 2 (Black–Leff operational model); conditions: for bias factor (CL95%), NOP: ΔΔlog(τ/KA) G protein minus β-arrestin 2, N/OFQ(1–13)-NH2 as standard unbiased ligand, positive = toward G protein, mean of at least five experiments; for BIAS FACTOR: supplementary CSV (molecular formula strings), repeats Tables 1–7 without confidence limits
[3] = target: NOP receptor (NOP-RLuc/β-arrestin 2-RGFP) (Homo sapiens, UniProt P41146); experiment: NOP/β-arrestin 2 interaction, BRET assay in whole cells; assay type: cell-based; conditions: Emax of ligand / Emax of N/OFQ(1–13)-NH2; mean ± sem of five experiments in duplicate

By UniProt entry, the sequences of proteins in these tests, tags left out.
UniProt P41146, whole entry: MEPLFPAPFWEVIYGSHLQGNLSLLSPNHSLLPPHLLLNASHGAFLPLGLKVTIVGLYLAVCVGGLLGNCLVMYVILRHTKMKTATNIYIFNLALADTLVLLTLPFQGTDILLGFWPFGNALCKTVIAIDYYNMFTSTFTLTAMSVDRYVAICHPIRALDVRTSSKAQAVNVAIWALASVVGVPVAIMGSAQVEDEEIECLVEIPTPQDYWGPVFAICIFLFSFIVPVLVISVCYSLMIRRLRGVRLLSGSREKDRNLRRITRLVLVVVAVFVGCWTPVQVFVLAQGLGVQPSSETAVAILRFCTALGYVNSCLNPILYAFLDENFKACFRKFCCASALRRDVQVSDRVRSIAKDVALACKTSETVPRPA

| SMILES | NOP/G protein α ± sem (intrinsic activity) [1] | bias factor (CL95%), NOP [2] | BIAS FACTOR [2] | NOP/β-arrestin 2 α ± sem (intrinsic activity) [3] |
| --- | --- | --- | --- | --- |
| C[C@H](NC(=O)CCCN1C(=O)CC(SC[C@H](NC(=O)[C@H](CCCCN)NC(=O)[C@H](CCCNC(=N)N)NC(=O)[C@H](C)NC(=O)[C@H](CO)NC(=O)[C@H](CCCCN)NC(=O)[C@H](CCCNC(=N)N)NC(=O)[C@H](C)NC(=O)CNC(=O)[C@@H](NC(=O)[C@H](Cc2ccccc2)NC(=O)CNC(=O)CNC(=O)[C@@H](N)Cc2ccccc2)[C@@H](C)O)C(N)=O)C1=O)C(=O)N[C@@H](CC(=O)O)C(=O)N[C@@H](C)C(=O)N[C@@H](CC(=O)O)C(=O)N[C@@H](C)C(=O)N[C@@H](CC(=O)O)C(=O)N[C@@H](C)C(=O)N[C@@H](CC(=O)O)C(=O)N[C@@H](C)C(=O)N[C@@H](CC(=O)O)C(=O)N[C@@H](C)C(=O)N[C@@H](CC(=O)O)C(N)=O (stereo partly shown) | 0.97 ± 0.05 |  |  |  |
| C[C@H](NC(=O)CNC(=O)[C@@H](NC(=O)[C@H](Cc1ccccc1)NC(=O)CNC(=O)CNC(=O)[C@@H](N)Cc1ccccc1)[C@@H](C)O)C(=O)N[C@@H](CCCNC(=N)N)C(=O)N[C@@H](CCCCN)C(=O)N[C@@H](CO)C(=O)N[C@@H](C)C(=O)N[C@@H](CCCNC(=N)N)C(=O)N[C@@H](CCCCN)C(=O)N[C@@H](CSC1CC(=O)N(CCCC(=O)NCC(=O)N[C@@H](CC(=O)O)C(=O)NCC(=O)N[C@@H](CC(=O)O)C(=O)NCC(=O)N[C@@H](CC(=O)O)C(=O)NCC(=O)N[C@@H](CC(=O)O)C(=O)NCC(=O)N[C@@H](CC(=O)O)C(=O)NCC(=O)N[C@@H](CC(=O)O)C(N)=O)C1=O)C(N)=O (stereo partly shown) | 0.85 ± 0.07 |  |  |  |
| C[C@H](NC(=O)CNC(=O)[C@@H](NC(=O)[C@H](Cc1ccccc1)NC(=O)CNC(=O)CNC(=O)[C@@H](N)Cc1ccccc1)[C@@H](C)O)C(=O)N[C@@H](CCCNC(=N)N)C(=O)N[C@@H](CCCCN)C(=O)N[C@@H](CO)C(=O)N[C@@H](C)C(=O)N[C@@H](CCCNC(=N)N)C(=O)N[C@@H](CCCCN)C(=O)N[C@@H](CSC1CC(=O)N(CCCC(=O)NCC(=O)N[C@@H](Cc2c[nH]cn2)C(=O)NCC(=O)N[C@@H](Cc2c[nH]cn2)C(=O)NCC(=O)N[C@@H](Cc2c[nH]cn2)C(=O)NCC(=O)N[C@@H](Cc2c[nH]cn2)C(=O)NCC(=O)N[C@@H](Cc2c[nH]cn2)C(=O)NCC(=O)N[C@@H](Cc2c[nH]cn2)C(N)=O)C1=O)C(N)=O (stereo partly shown) |  | 0.17 (-0.29-0.62) |  |  |
| C[C@H](NC(=O)CNC(=O)[C@@H](NC(=O)[C@H](Cc1ccccc1)NC(=O)CNC(=O)CNC(=O)[C@@H](N)Cc1ccccc1)[C@@H](C)O)C(=O)N[C@@H](CCCNC(=N)N)C(=O)N[C@@H](CCCCN)C(=O)N[C@@H](CO)C(=O)N[C@@H](C)C(=O)N[C@@H](CCCNC(=N)N)C(=O)N[C@@H](CCCCN)C(=O)N[C@@H](CSC1CC(=O)N(CCCC(=O)NCCCCCCCCCCC(=O)NCCCCCCCCCCC(=O)NCCCCCCCCCCC(N)=O)C1=O)C(N)=O (stereo partly shown) | 0.96±0.01 | 0.09 (-0.32-0.50) | 0.09 | 0.79 ± 0.04 ^a |
| C[C@H](NC(=O)CNC(=O)[C@@H](NC(=O)[C@H](Cc1ccccc1)NC(=O)CNC(=O)CNC(=O)[C@@H](N)Cc1ccccc1)[C@@H](C)O)C(=O)N[C@@H](CCCNC(=N)N)C(=O)N[C@@H](CCCCN)C(=O)N[C@@H](CO)C(=O)N[C@@H](C)C(=O)N[C@@H](CCCNC(=N)N)C(=O)N[C@@H](CCCCN)C(=O)N[C@@H](CSC1CC(=O)N(CCCC(=O)NCCOCCOCC(=O)NCCOCCOCC(=O)NCCOCCOCC(N)=O)C1=O)C(N)=O (stereo partly shown) |  | -0.20 (-0.65-0.25) | -0.20 | 0.97 ± 0.03 |

Source: PMC8011926 (Journal of Medicinal Chemistry, 2020)
